In general, pKa refers to the pH at which an ionisable group is half protonated. A low value points to a group that gives up its proton readily. The EC50 is the concentration needed to bring the measured effect to its halfway point.

The results in this text go back to ChEMBL document CHEMBL5113391, “Halogen substituents enhance oxime nucleophilicity for reactivation of cholinesterases inhibited by nerve agents” (2022).

A short description of series [1]: Dissociation constant, pKa of the compound at pH 4.5 to 11 by UV-vis spectrophotometric analysis.
Series [2] can be described thus: Antioxidant activity assessed as DPPH radical scavenging activity incubated for 1 hrs under dark condition by DPPH assay. In general terms: The DPPH test is a chemical assay of radical scavenging.
The nature of series [3]: Stability of compound in unionized water at 1 mg/ml for 8 hrs by UHPLC analysis. To be noted: buffer.
Series [4] in a line: Stability of compound in PBS at 1 mg/ml for 8 hrs by UHPLC analysis. Particulars: buffer.

Regarding `NC(=O)c1cc[n+](C/C=C/C[n+]2ccc(/C=N/O)c(F)c2)cc1.[Br-].[Br-]`, in series [1], the pKa is 7.75.

For the compound `Cc1c(C)c2c(c(C)c1O)CCC(C)(C(=O)O)O2` (stereo not drawn), in series [2], the EC50 is 50 µM. `NC(=O)c1cc[n+](CCCC[n+]2cc(F)c(/C=N/O)c(F)c2)cc1.[Br-].[Br-]` gave a pKa in series [1] of 7.29. On to `NC(=O)c1cc[n+](CCC[n+]2ccc(/C=N/O)c(Cl)c2)cc1.[Br-].[Br-]`, for which the Stability result is “Stable” in series [3] and “Unstable” in series [4]. In the case of `NC(=O)c1cc[n+](C/C=C/C[n+]2cc(F)c(/C=N/O)c(F)c2)cc1.[Br-].[Br-]`, the pKa in series [1] was determined as 7.26. With `NC(=O)c1cc[n+](CCCC[n+]2ccc(/C=N/O)c(F)c2)cc1.[Br-].[Br-]`, the pKa in series [1] was 7.78. In the case of `NC(=O)c1cc[n+](CCC[n+]2cc(F)c(/C=N/O)c(F)c2)cc1.[Br-].[Br-]`, the figures for the Stability entry in series [3] and in series [4] were “Stable” and “Unstable”, respectively. Moreover, the pKa in series [1] was 7.26.

In the case of `NC(=O)c1cc[n+](CCC[n+]2ccc(/C=N/O)c(F)c2)cc1.[Br-].[Br-]`, the Stability result in series [3] is recorded as “Stable”; in series [4], “Unstable”. Besides, the pKa in series [1] is 7.76.
